Measured affinities in a library of Ab-14 light chain variants

Reference: Li et al. 2023, doi:10.1038/s41467-023-39022-2. File: FLAb, binding data.

Target: peptide PDVDLGDISGINAS, taken from heptad repeat 2 (HR2) of SARS-CoV-2 spike.

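The variants were designed computationally from a first round of random CDR variants and then made and measured. Several design methods are mixed in this list. AlphaSeq pools MATa yeast showing the antibodies with MATalpha yeast showing the peptide. After mating in shaken culture at 30 °C for 16 h, diploids were selected and their barcode pairs sequenced. Each replicate has its own calibration line, from reference interactions of the BCL2 family. Mating was done six times.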

Each scFv is VH, three GGGGS repeats, VL, as in the parent Ab-14, and differs from it in the CDRs of the light chain only.
VH: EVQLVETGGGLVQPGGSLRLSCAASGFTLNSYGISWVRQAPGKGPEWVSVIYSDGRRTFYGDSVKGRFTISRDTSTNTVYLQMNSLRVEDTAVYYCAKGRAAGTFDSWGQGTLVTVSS
VL: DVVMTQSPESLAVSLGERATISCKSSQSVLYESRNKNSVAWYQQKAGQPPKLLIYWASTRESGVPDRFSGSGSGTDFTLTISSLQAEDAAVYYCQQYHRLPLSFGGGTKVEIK

Variants are written as CDR1, CDR2 and CDR3 of the light chain (limits as in the source). Parent: KSSQSVLYESRNKNSVA, WASTRES, QQYHRLPLS.
Values are log10 of the apparent Kd in nM; lower means stronger binding.
A mean of the replicates is given; it leaves out those without a signal.
An entry "not detected" has no value in the source: the pair was not observed among the diploids in any replicate. This suggests poor binding but is not conclusive.
In the paper, a design with two or fewer of six values counts as a poor binder.

CDR-L1,CDR-L2,CDR-L3,mean log10 Kd (nM),seen in,empty controls
TLSQLTGHMSMSKNNVA,EMETREN,QQYDRLPLS,0.94,4/6,0/18
NVGQSMLGESHNKNSVA,HQSTRED,QHYHRLPLS,0.61,6/6,0/18
KSSDSVLYESTFKNSVA,GASTRES,QQYGRLPLS,0.19,6/6,1/18
LSSSSYLYESMNKNSVA,EASTRES,QQYHRLPLS,0.49,6/6,1/18
KLRQSTGYESRNPNSVA,KASTRES,QQYHRLPLS,-0.05,6/6,1/18
KSSQSWLYEAPNKNSVA,GASPRDS,QQYHRLPLS,0.12,6/6,0/18
KWSISDLQGDRNKNSVA,HASCREQ,QQYHRLPLS,1.16,6/6,1/18
KLSQSVLYESRNKNSVA,DASTRES,QQYHRLMLS,-0.01,6/6,2/18
KYSQQMLYESRNKNNVA,EASHRES,QQYHRLPLS,-0.09,6/6,2/18
MLSQMWALGMKVSNSVA,QATMRFN,QQYERLPLI,not detected,0/6,0/18
KLSQSDLYESRNKNSVA,NASTRES,QAYHRLPLS,0.22,6/6,3/18
HSSQSVLYESRNKNSVA,NASTRMS,QQYHRLPLS,1.80,6/6,3/18
MFSQLTYTGSRARNAVA,QASTREN,QQYHHLPLM,0.88,6/6,0/18
KSSISYGEESRNKNSVA,EASTRES,QQYHRLPLS,-0.69,6/6,0/18
KSSQSVDRESRNKNSVA,DASTREQ,QQYHRLPLS,0.15,6/6,0/18
KLSQSVLYEQRNKNNVA,EASTRES,QQYHRLPLS,-0.43,6/6,0/18
KSSQSVLYNSRLKNSVA,DASTRES,QQYHHLPLS,0.41,6/6,2/18
SIYDMTGMESRNKNPIA,DVSTRPS,QQYDRLPLS,0.99,6/6,1/18
KLSQSQLYESRAKNSVA,NASTRES,QQYHRLPLS,0.11,6/6,0/18
IISGSMLMESRHKNSVA,NAETREY,QHYDRLPLS,0.52,6/6,1/18
MMSQVTMSGMRHRNNVA,QTSTREP,QQYDQLPLI,0.87,6/6,0/18
KSSQSVLYESRNKNSVA,WASTREH,QQYHRLSLS,not detected,0/6,0/18
KSSQSVLGESRNKNSVA,TASTRES,QQYHRLPLS,1.25,6/6,2/18
KISQSVLYESRNKNSVA,WADTRES,QQYTRLPLS,1.14,6/6,3/18
KLSQSVSYESRNKNSVA,EASTRES,QQYHRLPLS,0.07,6/6,1/18
KISQSVLMESLNKNSVA,EASTRLD,QQYHRLPLS,0.19,6/6,0/18
RLNVFQNAITQQNNNIA,QANQKVH,QQYMRLPLY,-0.27,6/6,0/18
KSSQEVLYESRNKNSVA,KASTRES,QQYHRLPLS,1.06,6/6,0/18
KLQQDVLYGSRNKNSVA,QASTRMV,QAYHRLPLS,0.34,6/6,0/18
KLSQSVLYGSRNKNSVA,EASTRES,QQYHRLPLS,-0.37,6/6,1/18
TVKAELEMFAQDKHSVA,EAVERAS,QQYHRLPLG,0.73,6/6,0/18

Continued, with the values leading:

mean log10 Kd (nM),seen in,empty controls,CDR-L1,CDR-L2,CDR-L3
1.69,6/6,0/18,MLSQMTGWGMKASNSVA,QASTRFE,QQYHRLPLI
2.21,6/6,1/18,KSSQSVPYESRLHNSVA,HKSTREY,QQYHRLPLS
0.51,6/6,0/18,KLMWSVMLESRNKNSVA,QASTRME,QQYHRLPLS
-0.08,6/6,0/18,KLSQSSLYESRNKNSVA,NASTRMS,QQYHRLPLS
0.38,6/6,1/18,TLGDVTRMESNKKNSIA,DMSTRES,QQYHRLPLS
not detected,0/6,0/18,KSSHSLLYESRNKNSVA,WASTRES,QQYHRLPES
-0.10,6/6,3/18,KFEQSVLYESRNKNSVA,NASQRMS,QQYHRLPLS
2.26,6/6,3/18,TIGSTLMYGMANRSNVA,EVSERLN,QQYDRLPLL
1.86,6/6,2/18,KSSQSVLYEDRNKNSVA,WASTREM,QQYMRLPLM
1.54,1/6,0/18,ESSQSQLYESRNKNWVA,WASTRES,QQYMRLPLS
0.76,6/6,0/18,KLRQQTLYESRNKNSVA,WASTREE,QQYHRLPLS
0.59,6/6,1/18,KSSQSWLYESRWKNSVA,GASQRES,QQYHRLPLS
0.38,6/6,4/18,KFSQSVLYESRNKNSVA,NRSTRES,QQYHRFPLS
0.72,6/6,2/18,TISQMSTLFSQTINNVA,EVSTREQ,QQYDRLPLM
1.91,6/6,2/18,HITYGMMVAGRHSKSIA,QAETRAK,QQYDRLPLS
0.53,6/6,0/18,KLRMSTAYLSENKNSVA,ELSTRGS,QQYFRLPLS
not detected,0/6,1/18,TIGAQLMYGTRNRSNVA,EVSERLN,QQYDRLPLL
1.57,6/6,3/18,KVSEFMRGLMRRQDSIA,DNETRES,QQYDRLPLS
0.18,6/6,1/18,MITQSFLIGMKAKNSVA,QTNTREE,QQYDRLPLI
1.88,3/6,0/18,KLGAWMYWQTEAKYAIA,QDEMRVH,QQYDRLPLT
-0.14,6/6,0/18,KSDQGGLYESRNKNSVA,GASTRES,QQYHRLPLS
0.25,6/6,2/18,KVEQSVMMGSRNKNSVA,HASQREQ,QQYHRLPLS
not detected,0/6,0/18,MISQLINMGSFAINSVA,QASIRCN,QQYDRLPLA
0.33,6/6,1/18,KLPQSVLYESRNKNSVA,HASTRMS,QQYHRLPLS
0.03,6/6,1/18,KWEEGWLYESRNKNSVA,EGSTRES,QQYHRLPLS
1.20,5/6,0/18,TISQSWFVESKNKNNVA,EMSTREN,QDYDRLPLS
-0.23,6/6,0/18,KVSPSNLYESRNKNSVA,EASTRES,QQYHRLPLS
0.75,6/6,1/18,MISDLTYIGLRNVNSVA,DLSTRGN,QQYDRLPLS
0.95,6/6,1/18,QLSMITGHVSMSKNNVA,EMETREN,QQYDRLPLS
0.49,6/6,0/18,KLSTSSLYESRMANNVA,AASTREE,QQYHRLPLS
0.67,6/6,2/18,KIKLSNSVSLRGTRAIA,DGSTRAH,QQYHRLPLT
1.01,6/6,2/18,NFSQMVLTGSTLRNSVA,HASTRNE,QQYHRLPLI

Three control strains display no target. For all light chain designs, 4% of the pairings with them gave a signal, with a median of 2.64 and one signal in twenty below 1.59, so weak values seen in few replicates may be background. For each scFv, signals with the empty controls are counted beside the result.
Of ten entries with the parent sequence, four were seen in most replicates (averages 0.34 to 2.37), three in one and three in none, so single entries are noisy.
A sequence measured in both rounds can read differently, since the two assays cover different ranges.